Values joined by “and” are separate entries in the source; they are usually repeats but may differ in a detail not shown here. Equal entries are not always repeated. The list shows a part of the results, in another mix than the full data. Some results for these compounds are left out of this collection, so the calls shown say nothing about other tests.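 Cells were grown in 96-well plates and exposed to the test compound at a single concentration for 48 hours; results are reported as percent growth, with values below 10 considered active.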 Active and inactive are the calls of the source.
Test system: MDA-MB-468 breast
Test: NCI-60 one-dose screen, 48 h (100 = growth as untreated, 0 = no growth, -100 = all killed)
Settings: 10 µM

| Structure (SMILES) | growth |
| --- | --- |
| CC(C)(C)N(CCCl)CCCl | inactive: 92.9% |
| ClCCN(CCCl)Cc1ccsc1Br | inactive: 95.1% |
| CCCN(CCCl)CCCl | inactive: 96.1% |
| CN(C)CCOC(=O)C(O)(c1ccccc1)c1ccccc1 | inactive: 118% |
| O=C(OCCN1CCCC1)C(O)(c1ccccc1)c1ccccc1 | inactive: 114% |
| Fc1cccc(CN(CCCl)CCCl)c1 | inactive: 102% |
| BrCCN(CCBr)Cc1ccccc1 | inactive: 110% |
| ClCCN(CCCl)Cc1cc(Cl)cc(Cl)c1 | inactive: 81.8% |
| CC[N+](C)(C)Cc1cccc(Cc2ccccc2)c1OC(=O)N(C)C | inactive: 109% |
| ClCCN(CCCl)C1c2ccccc2-c2ccccc21 | inactive: 93% |
| N#CC(C#N)=Cc1cccc(Br)c1 | inactive: 107% |
| CCNCCCl | inactive: 115% |
| N#CC(C#N)=Cc1ccc(Br)cc1 | inactive: 105% and inactive: 101% |
| CN(CCBr)CCBr | inactive: 101% |
| CC(=O)CI | inactive: 102% |
| COc1ccc([N+](=O)[O-])cc1CN(CCCl)CCCl | inactive: 101% |
| ClCCN(CCCl)Cc1ccc(Cl)c(Cl)c1 | inactive: 98.5% |
| COCc1c(CN(CCCl)CCCl)cnc(C)c1O | inactive: 94.3% |
| COc1ccc(N=C=S)cc1CN(CCCl)CCCl | inactive: 54% |
| CCOc1ccc([N+](=O)[O-])cc1CN(CCCl)CCCl | inactive: 106% |
| Cc1cc2nc(CN(CCCl)CCCl)[nH]c2cc1C | inactive: 55.2% |
| ClCCN(CCCl)C1CCCCC1 | inactive: 92.4% |
| N#CC(C#N)=Cc1ccccc1Cl | inactive: 98.5% |
| ClCCCCCC(CCl)NCCCl (centres undefined) | inactive: 79.5% |

— PubChem BioAssay (NCI)
